Each structure is given as a SMILES string.

Protein sequences, listed by entry. Tags and fused reporters are not part of them.
UniProt P51681, whole entry: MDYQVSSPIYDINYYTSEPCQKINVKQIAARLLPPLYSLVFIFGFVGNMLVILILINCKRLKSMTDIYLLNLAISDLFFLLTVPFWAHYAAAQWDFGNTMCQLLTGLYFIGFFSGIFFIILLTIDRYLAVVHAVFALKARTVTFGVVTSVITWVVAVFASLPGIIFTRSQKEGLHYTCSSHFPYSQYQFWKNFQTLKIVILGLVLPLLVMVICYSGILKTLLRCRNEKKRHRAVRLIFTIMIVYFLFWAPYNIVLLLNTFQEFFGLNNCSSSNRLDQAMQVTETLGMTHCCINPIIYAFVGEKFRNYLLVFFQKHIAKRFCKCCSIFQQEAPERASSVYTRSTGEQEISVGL

Among the data in patent publication US20080299132A1, “Synergistic compositions for treating HIV-1” (Roche Palo Alto LLC, priority 2006, published 2008) are IC50 values, retold here.

The assay has as its target CCR5 (Homo sapiens, UniProt P51681). As to the kind of experiment: CCR5-mediated cell-cell fusion (CCF) assay, single agents. Format: cell-based. The following applies: read-out: IC50 ± SD, inhibitor alone.
The IC50 is the concentration at which inhibition is half-maximal. Regarding `CCCC[C@H]1CN(CC2CCOCC2)C(=O)OC12CCN(C1(C)CCN(C(=O)c3c(C)ncnc3C)CC1)CC2`, the 50% inhibitory concentration (IC50) amounted to 1 nM.
With `Cc1cccc(C)c1C(=O)N1CC2CN(CC[C@H](NC(=O)C3CCCC3)c3ccccc3)CC2C1` (stereo partly drawn), the IC50 worked out at 4 nM.
With `CC(=O)N1CCC(C(=O)N(CCCN2CC3CN(C(=O)c4c(C)cccc4C)CC3C2)c2ccc(C)c(Cl)c2)CC1` (stereo not drawn), the IC50 is 0.4 nM.
